Tm data for three compounds are collected here from ChEMBL document CHEMBL5344417.

The assay addresses T1, Retinoic acid receptor RXR-alpha (Homo sapiens) (UniProt P19793).
T1 sequence (whole entry): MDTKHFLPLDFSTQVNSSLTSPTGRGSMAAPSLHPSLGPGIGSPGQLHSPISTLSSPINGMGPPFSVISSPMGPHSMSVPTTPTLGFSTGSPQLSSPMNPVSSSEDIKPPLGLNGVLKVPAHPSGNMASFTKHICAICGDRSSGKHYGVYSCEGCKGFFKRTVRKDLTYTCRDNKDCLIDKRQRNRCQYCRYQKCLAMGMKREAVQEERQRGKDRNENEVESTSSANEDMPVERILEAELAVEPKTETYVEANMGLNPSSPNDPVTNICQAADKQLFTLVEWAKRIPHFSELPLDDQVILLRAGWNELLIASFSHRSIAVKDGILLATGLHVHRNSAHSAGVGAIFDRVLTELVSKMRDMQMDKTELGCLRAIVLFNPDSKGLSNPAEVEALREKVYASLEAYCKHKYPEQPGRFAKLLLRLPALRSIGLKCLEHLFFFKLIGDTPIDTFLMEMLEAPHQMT
As to conditions: filed as agonist.

Take `Cc1cc2c(cc1-c1cc(/C=C/C(=O)O)ccc1O)C(C)(C)CCC2(C)C`: the Tm was determined as 73.8 °C.
For `C/C=C/C=C/C(O)=C1/C(=O)[C@@]2(C)[C@H]3\C(=C(O)/C=C/C=C/C)C(=O)[C@@]4(C)[C@@H]1[C@]1(C)O[C@@]4(O)[C@@]3(C)O[C@@]12O` the value was 66.7 °C.
For `C/C=C/C=C/C(O)=C1/C(=O)[C@@]2(C)[C@H]3/C(=C(/O)CC/C=C/C)C(=O)[C@@]4(C)[C@@H]1[C@]1(C)O[C@@]4(O)[C@@]3(C)O[C@@]12O` the value was 66.5 °C.
